Marks after values point to notes of the source that are not given here.
How the values were obtained:
[1] = Relative humidity stability at ambient temperature, analyzed by XRPD; format: physicochemical
[2] = Slurrying in water, resulting solid form; format: physicochemical; details: three days
[3] = concentration measurement at ~5 hours, slurry in water at ambient

Substance	Results ([1]; 75% RH, 1 week)	Results ([1]; 75% RH, 4 weeks)	Results ([1]; 75% RH, 1 day)	Results ([1]; 75% RH, 3 days)	Results ([1]; 94% RH, 1 week (7 days))	Results ([1]; 94% RH, 4 weeks)	Results ([1]; 94% RH, 1 day)	Results ([1]; 94% RH, 3 days)	Results ([1]; 98% RH, 1 week)	Results ([1]; 98% RH, 4 weeks)	Results ([1]; 98% RH, 1 day)	Results ([1]; 98% RH, 3 days)	result of slurrying in water [2]	Solubility (±standard deviation) [3]
pterostilbene:carbamazepine [cocrystal 2]	cocrystal 2, no carbamazepine dihydrate	cocrystal 2, no carbamazepine dihydrate	cocrystal 2, no carbamazepine dihydrate	cocrystal 2, no carbamazepine dihydrate	cocrystal 2, no carbamazepine dihydrate	cocrystal 2, no carbamazepine dihydrate	cocrystal 2, no carbamazepine dihydrate	cocrystal 2, no carbamazepine dihydrate	cocrystal 2, no carbamazepine dihydrate	cocrystal 2, no carbamazepine dihydrate	cocrystal 2, no carbamazepine dihydrate	cocrystal 2, no carbamazepine dihydrate	–	–
pterostilbene:piperazine [cocrystal 4]	–	–	–	–	–	–	–	–	–	–	–	–	precipitation of pterostilbene	123 ± 6^b μg/mL

— patent US8513236B2 (Laurus Labs Private Limited, priority 2010, dated 2013)
